Data taken from patent US9624217B2, “Dihydropyrrolopyridine inhibitors of ROR-gamma” (Vitae Pharmaceuticals, Inc., priority 2014, dated 2017).

The chains behind the UniProt entries cited, without tags or fusion partners. A line that says so, or that is headed by a name, gives the form on record, which may keep a tag or linker. Residues count along the entry.
UniProt P51449, 269-508: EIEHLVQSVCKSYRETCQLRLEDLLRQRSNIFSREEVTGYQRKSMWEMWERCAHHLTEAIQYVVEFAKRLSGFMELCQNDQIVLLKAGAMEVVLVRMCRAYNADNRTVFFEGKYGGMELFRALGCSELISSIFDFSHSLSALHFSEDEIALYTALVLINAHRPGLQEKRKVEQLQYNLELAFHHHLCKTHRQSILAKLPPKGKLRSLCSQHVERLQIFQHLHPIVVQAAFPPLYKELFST
UniProt P51449, other isoform, or with tags, fused parts or gaps: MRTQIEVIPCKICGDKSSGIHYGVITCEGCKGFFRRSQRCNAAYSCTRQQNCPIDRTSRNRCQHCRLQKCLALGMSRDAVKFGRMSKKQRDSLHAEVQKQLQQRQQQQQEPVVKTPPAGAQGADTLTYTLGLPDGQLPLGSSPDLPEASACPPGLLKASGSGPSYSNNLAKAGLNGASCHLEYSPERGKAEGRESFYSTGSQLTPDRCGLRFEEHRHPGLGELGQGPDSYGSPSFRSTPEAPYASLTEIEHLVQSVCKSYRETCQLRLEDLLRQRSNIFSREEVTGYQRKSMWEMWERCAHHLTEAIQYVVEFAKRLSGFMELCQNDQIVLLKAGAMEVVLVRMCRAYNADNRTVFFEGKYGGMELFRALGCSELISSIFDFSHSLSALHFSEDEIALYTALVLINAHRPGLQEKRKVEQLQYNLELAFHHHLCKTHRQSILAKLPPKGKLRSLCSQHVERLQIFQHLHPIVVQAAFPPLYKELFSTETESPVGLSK

How the values were obtained:
[1] = target: recombinant RORγ Ligand Binding Domain (LBD) (Homo sapiens (Human), UniProt P51449); assay: Radio-Ligand RORγ Binding Assay (Assay 1); conditions: SPA competition with 25-hydroxy [26,27-3H]-cholesterol, cell-free; read-out: RORγ Binding Ki Range
Experimental: Radio-Ligand RORγ Binding Assay (Assay 1)
Compounds of the present invention were tested for ability to bind to RORγ in a cell-free competition assay with commercially available radio-ligand (RL), 25-hydroxy [26,27-^3H]-cholesterol (PerkinElmer, Cat. #NET674250UC), for a ligand binding site on a recombinant RORγ Ligand Binding Domain (LBD) protein expressed as a 6×His-Glutathione-S-Transferase (GST) fusion. […] The plate was shaken at 700 rpm for 20 min and incubated for 10 min at rt, after which 40 μL of poly-Lys YSi SPA beads (PerkinElmer, Cat. #RPNQ0010) were added to achieve 50 μg of the beads per well. The plate was incubated on an orbital shaker for 20 min and then for 10 min without agitation at rt. SPA signal for tritium beta radiation was registered on PerkinElmer Microbeta plate reader. […] The percent inhibition vs. concentration data were fit into a four-parameter model, and IC50 values were calculated from the fit as the concentrations corresponding to the inflection points on the dose-response curves.

full-length RORγt = full-length RORγt (Homo sapiens (Human), UniProt P51449); assay: RORγt 5×RORE Assay in Jurkat Cells (Assay 2); format: cell-based; conditions: secreted Nanoluc luciferase 5×RORE reporter, 16-18 hrs, read-out: RORγt5X IC50 Range
Experimental: [formula] RORγt 5×RORE Assay in Jurkat Cells (Assay 2)
Compounds of the present invention were tested for RORγ inverse agonist activity in a cell-based, transcriptional activity assay. […] (Promega, Cat. #N1021) using KpnI and HindIII restriction sites. […] Luciferase activity in the conditioned supernatants was determined with NanoGlo® assay reagents (Promega, Cat. #N1130).

SMILES	Ki [1]	IC50 (full-length RORγt)
COC(=O)CC(NC(=O)c1cnc2c(c1)CN(Cc1ccc(C(F)(F)F)cc1)[C@H]2C(C)C)c1ccc(Br)cc1 (stereo partly drawn) [Compound 128]	100 to 1000 nM	–
CCS(=O)(=O)c1ccc(CNC(=O)c2cnc3c(c2)C(=O)N(Cc2ccc(C(F)(F)F)cc2)[C@H]3C(C)C)cc1 [Compound 32]	< 100 nM	100 to 1000 nM
CCS(=O)(=O)c1ccc(CNC(=O)c2cnc3c(c2)CN(Cc2ccc(C(F)(F)F)cc2)[C@H]3C(C)C)nc1C [Compound 143]	< 100 nM	100 to 1000 nM
CCS(=O)(=O)c1ccc(CNC(=O)c2cnc3c(c2)CN(Cc2ccc(-c4nnn(C)n4)cc2)[C@H]3C(C)C)cc1 [Compound 38]	< 100 nM	100 to 1000 nM
CCS(=O)(=O)c1ccc(CNC(=O)c2cnc3c(c2)CN(Cc2ccc(C#N)cc2)[C@@H]3[C@H]2CCOC2)cc1 [Compound 52]	100 to 1000 nM	100 to 1000 nM
COC(=O)C[C@H]1CC[C@H](CNC(=O)c2cnc3c(c2)CN(Cc2ccc(C(F)(F)F)cc2)[C@H]3C(C)C)CC1 [Compound 127]	100 to 1000 nM	–
CCS(=O)(=O)c1ccc(CNC(=O)c2cnc3c(c2)CN(Cc2cnc(C(F)(F)F)nc2)[C@H]3C(C)C)cc1 [Compound 26]	100 to 1000 nM	–
CCS(=O)(=O)c1ccc(CNC(=O)c2cnc3c(c2)CN(Cc2ccc(C#N)cc2)[C@H]3[C@H]2CCOC2)cc1 [Compound 50]	> 1000 nM	> 1000 nM
CCS(=O)(=O)c1ccc(CNC(=O)c2cnc3c(c2)CN(c2ncc(CO)c(C(F)(F)F)n2)[C@H]3C(C)C)cc1 [Compound 12]	100 to 1000 nM	> 1000 nM
CCS(=O)(=O)c1ccc(CNC(=O)c2cnc3c(c2)CN(Cc2ccc(C(F)(F)F)nc2)[C@H]3C(C)C)cc1 [Compound 39]	–	< 100 nM
COc1cccc(C(C)(C)CNC(=O)c2cnc3c(c2)CN(Cc2ccc(C(F)(F)F)cc2)[C@H]3C(C)C)c1 [Compound 72]	100 to 1000 nM	–
CCS(=O)(=O)c1ccc(CNC(=O)c2cnc3c(c2)CN(Cc2ccc(C(F)(F)F)cn2)[C@H]3C(C)C)cc1 [Compound 27]	< 100 nM	100 to 1000 nM
CCS(=O)(=O)c1ccc(CNC(=O)c2cnc3c(c2)CN(Cc2ccc(C#N)cc2)[C@@H]3[C@@H]2CCOC2)cc1 [Compound 51]	100 to 1000 nM	100 to 1000 nM
CCS(=O)(=O)c1ccc(CNC(=O)c2cnc3c(c2)CN(Cc2ccc(C#N)cc2)[C@H]3[C@@H]2CCOC2)cc1 [Compound 48]	> 1000 nM	> 1000 nM
CCS(=O)(=O)c1ccc(CNC(=O)c2cnc3c(c2)CN(Cc2ccc(C(F)(F)F)nc2)[C@@H]3C(C)C)cc1 [Compound 40]	100 to 1000 nM	–
